According to paper PMC5079754 (Biochimica et biophysica acta, 2016):

Columns and labels:
[1] = biological target: T1, Lmod2s1 (residues 2–41 of Lmod2) (Homo sapiens, UniProt Q6P5Q4); experiment: CD thermal unfolding at 222 nm of Tpm1.1 model peptide complexes with Lmod2s1; type: binding; settings: compared with the earlier Kd for αTM1a1-14Zip [32]
T1 sequence (Q6P5Q4 2-41): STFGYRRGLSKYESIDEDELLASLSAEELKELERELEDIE

[2] = biological target: Tmod1s1 (res. 1–38 of Tmod1); experiment: CD thermal unfolding at 222 nm of Tpm1.1 model peptide complexes with Tmod1s1; type: binding, Gallus gallus; settings: read-out: Kd (30°C,µM), Tmod1s1, Kd=exp(−ΔΔG/RT) from CD unfolding of the complex and of the Tpm1.1 peptide alone, 40 µM equimolar, 10 mM sodium phosphate pH 7.0, 100 mM NaCl, duplicates

In the case of `CC[C@H](C)[C@H](NC(=O)[C@H](C)NC(=O)[C@H](CC(=O)O)NC(=O)[C@H](CCSC)NC(=O)CN)C(=O)N[C@@H](CCCCN)C(=O)N[C@@H](CCCCN)C(=O)N[C@@H](CCCCN)C(=O)N[C@@H](CCSC)C(=O)N[C@@H](CCC(N)=O)C(=O)N[C@@H](CCSC)C(=O)N[C@@H](CC(C)C)C(=O)N[C@@H](CCCCN)C(=O)N[C@@H](CC(C)C)C(=O)N[C@@H](CC(=O)O)C(=O)N[C@@H](CCCCN)C(=O)N[C@@H](CCC(=O)O)C(=O)N[C@@H](CC(N)=O)C(=O)N[C@@H](C)C(=O)N[C@@H](CC(C)C)C(=O)N[C@@H](CC(=O)O)C(=O)N[C@@H](CCCNC(=N)N)C(=O)N[C@@H](CC(N)=O)C(=O)N[C@@H](Cc1ccc(O)cc1)C(=O)N[C@@H](Cc1c[nH]cn1)C(=O)N[C@@H](CC(C)C)C(=O)N[C@@H](CCC(=O)O)C(=O)N[C@@H](CC(N)=O)C(=O)N[C@@H](CCC(=O)O)C(=O)N[C@H](C(=O)N[C@@H](C)C(=O)N[C@@H](CCCNC(=N)N)C(=O)N[C@@H](CC(C)C)C(=O)N[C@@H](CCCCN)C(=O)N[C@@H](CCCCN)C(=O)N[C@@H](CC(C)C)C(=O)N[C@H](C(=O)NCC(=O)N[C@@H](CCC(=O)O)C(=O)N[C@@H](CCCNC(=N)N)C(=O)O)C(C)C)C(C)C` [αTM1a1–21Zip], the “fold increase of affinity of Lmod2s1 versus the Lmod2s1/αTM1a1-14Zip complex” value [1] is reported as “~ two-fold” and the Kd [2] is reported as 1 ± 0.13 µM.
